According to US6962920B2, “Pyrimidine derivatives and methods of making and using these derivatives” (Duquesne University of the Holy Ghost, priority 1992, dated 2005):
Read-outs that look alike come from different tables or passages of the source.

Amino acid sequences for entries named in this document (tags omitted).
UniProt Q920D2, whole entry: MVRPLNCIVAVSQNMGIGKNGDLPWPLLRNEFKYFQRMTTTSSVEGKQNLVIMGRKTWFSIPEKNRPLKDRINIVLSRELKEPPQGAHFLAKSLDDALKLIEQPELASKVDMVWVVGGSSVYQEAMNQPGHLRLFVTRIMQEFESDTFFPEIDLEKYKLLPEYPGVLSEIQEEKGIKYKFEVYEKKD

Columns and labels:
RL DHFR = RL DHFR (Rattus norvegicus, UniProt Q920D2); assay: Inhibition of DHFR from rat liver; type: biochemical
K-562 = assay: NCI in vitro anti-cancer activity; details: Table 29, Leukemia
UACC-62 = assay: NCI in vitro anti-cancer activity, Melanoma; details: Table 29, Melanoma
LOX IMVI = assay: NCI in vitro anti-cancer activity, Melanoma; details: Table 29, Melanoma
UACC-257 = assay: NCI in vitro anti-cancer activity, Melanoma; details: Table 29, Melanoma
MALME-3M = assay: NCI in vitro anti-cancer activity, Melanoma; details: Table 29, Melanoma
M14 = assay: NCI in vitro anti-cancer activity, Melanoma; details: Table 29, Melanoma
SK-MEL-28 = assay: NCI in vitro anti-cancer activity, Melanoma; details: Table 29, Melanoma
SK-MEL-2 = assay: NCI in vitro anti-cancer activity, Melanoma; details: Table 29, Melanoma
SF-539 = assay: NCI in vitro anti-cancer activity, CNS Cancer; details: Table 29, CNS Cancer
U251 = assay: NCI in vitro anti-cancer activity, CNS Cancer; details: Table 29, CNS Cancer
SF-268 = assay: NCI in vitro anti-cancer activity, CNS Cancer; details: Table 29, CNS Cancer
SF-295 = assay: NCI in vitro anti-cancer activity, CNS Cancer; details: Table 29, CNS Cancer
SNB-75 = assay: NCI in vitro anti-cancer activity, CNS Cancer; details: Table 29, CNS Cancer, SNB-75
SNB-19 = assay: NCI in vitro anti-cancer activity, CNS Cancer; details: Table 29, CNS Cancer
786-0 = assay: NCI in vitro anti-cancer activity, Renal Cancer; details: Table 29, Renal Cancer
CAKI-1 = assay: NCI in vitro anti-cancer activity, Renal Cancer; details: Table 29, Renal Cancer
RXF 393 = assay: NCI in vitro anti-cancer activity, Renal Cancer; details: Table 29, Renal Cancer, RXF 393
ACHN = assay: NCI in vitro anti-cancer activity, Renal Cancer; details: Table 29, Renal Cancer
UO-31 = assay: NCI in vitro anti-cancer activity, Renal Cancer; details: Table 29, Renal Cancer
TK-10 = assay: NCI in vitro anti-cancer activity, Renal Cancer; details: Table 29, Renal Cancer
SN12C = assay: NCI in vitro anti-cancer activity, Renal Cancer; details: Table 29, Renal Cancer
NCI/ADR-RES = assay: NCI in vitro anti-cancer activity, breast cancer; details: Table 29, Breast Cancer, NCI/ADRRES
HT29 = assay: NCI in vitro anti-cancer activity, Colon Cancer; details: Table 29, Colon Cancer
KM12 = assay: NCI in vitro anti-cancer activity, Colon Cancer; details: Table 29, Colon Cancer
HCT-15 = assay: NCI in vitro anti-cancer activity, Colon Cancer; details: Table 29, Colon Cancer
SW-620 = assay: NCI in vitro anti-cancer activity, Colon Cancer; details: Table 29, Colon Cancer
HCT-116 = assay: NCI in vitro anti-cancer activity, Colon Cancer; details: Table 29, Colon Cancer
HCC-2998 = assay: NCI in vitro anti-cancer activity, Colon Cancer; details: Table 29, Colon Cancer
COLO 205 = assay: NCI in vitro anti-cancer activity, Colon Cancer; details: Table 29, Colon Cancer
SK-MEL-5 = assay: NCI in vitro anti-cancer activity, Melanoma; type: cell-based; details: Table 29, Melanoma
PC-3 = assay: NCI in vitro anti-cancer activity, Prostate Cancer; details: Table 29, Prostate Cancer
DU-145 = assay: NCI in vitro anti-cancer activity, Prostate Cancer; details: Table 29, Prostate Cancer
NCI-H460 = assay: NCI in vitro anti-cancer activity, Non-Small Cell Lung Cancer; type: cell-based; details: Table 29, Non-Small Cell Lung Cancer
HS 578T = assay: NCI in vitro anti-cancer activity, Breast Cancer; details: Table 29, Breast Cancer
T-47D = assay: NCI in vitro anti-cancer activity, Breast Cancer; details: Table 29, Breast Cancer
MDA-MB-435 = assay: NCI in vitro anti-cancer activity, Breast Cancer; details: Table 29, Breast Cancer
MDA-N = assay: NCI in vitro anti-cancer activity, Breast Cancer; details: Table 29, Breast Cancer
MDA-MB-231/ATCC = assay: NCI in vitro anti-cancer activity, Breast Cancer; details: Table 29, Breast Cancer
BT-549 = assay: NCI in vitro anti-cancer activity, Breast Cancer; details: Table 29, Breast Cancer
MCF7 = assay: NCI in vitro anti-cancer activity, Breast Cancer; details: Table 29, Breast Cancer
SK-OV-3 = assay: NCI in vitro anti-cancer activity, Ovarian Cancer; details: Table 29, Ovarian Cancer
IGROV1 = assay: NCI in vitro anti-cancer activity, Ovarian Cancer; details: Table 29, Ovarian Cancer
OVCAR-3 = assay: NCI in vitro anti-cancer activity, Ovarian Cancer; details: Table 29, Ovarian Cancer
OVCAR-5 = assay: NCI in vitro anti-cancer activity, Ovarian Cancer; details: Table 29, Ovarian Cancer
OVCAR-8 = assay: NCI in vitro anti-cancer activity, Ovarian Cancer; details: Table 29, Ovarian Cancer
OVCAR-4 = assay: NCI in vitro anti-cancer activity, Ovarian Cancer; details: Table 29, Ovarian Cancer
HOP-92 = assay: NCI in vitro anti-cancer activity, Non-Small Cell Lung Cancer; details: Table 29, Non-Small Cell Lung Cancer
NCI-H23 = assay: as above; details: Table 29, Non-Small Cell Lung Cancer
NCI-H226 = assay: as above; details: Table 29, Non-Small Cell Lung Cancer
NCI-H522 = assay: as above; details: Table 29, Non-Small Cell Lung Cancer
A549/ATCC = assay: as above; details: Table 29, Non-Small Cell Lung Cancer
A498 = assay: NCI in vitro anti-cancer activity, renal cancer; details: Table 29, Renal Cancer
HL-60 (TB) = assay: NCI in vitro anti-cancer activity, Leukemia; details: Table 29, Leukemia
SR = assay: NCI in vitro anti-cancer activity, Leukemia; details: Table 29, Leukemia
MOLT-4 = assay: NCI in vitro anti-cancer activity, Leukemia; details: Table 29, Leukemia
CCRF-CEM = assay: NCI in vitro anti-cancer activity, Leukemia; details: Table 29, Leukemia, CCRF-CEM
RPMI-8226 = assay: NCI in vitro anti-cancer activity, Leukemia; details: Table 29, Leukemia

Nc1nc2[nH]cc(CNc3cc(Cl)ccc3Cl)c2c(=O)[nH]1
IC50 (RL DHFR; read-out: rlDHFR IC50, Table 22): > 25 µM

Nc1nc(N)c2c(CNc3ccc(O)cc3)c[nH]c2n1
IC50 (RL DHFR; read-out: RL DHFR IC50, Table 7): 4.2 µM

COc1ccccc1CCc1c[nH]c2nc(N)nc(C)c12
GI50 (K-562): 24.3 µM | GI50 (UACC-62): 32 µM | GI50 (LOX IMVI): 41 µM | GI50 (UACC-257): 38.1 µM | GI50 (MALME-3M): 46.9 µM | GI50 (M14): 54 µM | GI50 (SK-MEL-28): > 100 µM | GI50 (SK-MEL-2): > 100 µM | GI50 (SF-539): 38 µM | GI50 (U251): 29.5 µM | GI50 (SF-268): 45.5 µM | GI50 (SF-295): 35.1 µM | GI50 (SNB-75): 36.2 µM | GI50 (SNB-19): 70.4 µM | GI50 (786-0): 36.3 µM | GI50 (CAKI-1): 55.7 µM | GI50 (RXF 393): 30.2 µM | GI50 (ACHN): 37.5 µM | GI50 (UO-31): 29.4 µM | GI50 (TK-10): 55.1 µM | GI50 (SN12C): 58 µM | GI50 (NCI/ADR-RES): 11 µM | GI50 (HT29): 38.4 µM | GI50 (KM12): 34.7 µM | GI50 (HCT-15): 20.4 µM | GI50 (SW-620): 73.4 µM | GI50 (HCT-116): 31.9 µM | GI50 (HCC-2998): 17.4 µM | GI50 (COLO 205): 59.9 µM | GI50 (SK-MEL-5): 29.5 µM | GI50 (PC-3): 27.8 µM | GI50 (DU-145): 55.3 µM | GI50 (NCI-H460): 13.9 µM | GI50 (HS 578T): 22.3 µM | GI50 (T-47D): 31 µM | GI50 (MDA-MB-435): 55.9 µM | GI50 (MDA-N): 46.5 µM | GI50 (MDA-MB-231/ATCC): 83.1 µM | GI50 (BT-549): 18.6 µM | GI50 (MCF7): 33.1 µM | GI50 (SK-OV-3): 76.8 µM | GI50 (IGROV1): 36.3 µM | GI50 (OVCAR-3): 83.3 µM | GI50 (OVCAR-5): > 100 µM | GI50 (OVCAR-8): 40.2 µM | GI50 (OVCAR-4): 47.9 µM | GI50 (HOP-92): 40 µM | GI50 (NCI-H23): 36.8 µM | GI50 (NCI-H226): 35.4 µM | GI50 (NCI-H522): 33.8 µM | GI50 (A549/ATCC): 21.2 µM | GI50 (A498): 13.4 µM | GI50 (HL-60 (TB)): 23.8 µM | GI50 (SR): 24.3 µM | GI50 (MOLT-4): 19.3 µM | GI50 (CCRF-CEM): 24.2 µM | GI50 (RPMI-8226): 76.7 µM | IC50 (RL DHFR; read-out: Inhibitory Concentrations (IC50) RL DHFR, Table 26): 1.8 µM

Nc1nc(N)c2c(-c3ccccc3)coc2n1
IC50 (RL DHFR; read-out: RL DHFR IC50, Table 16): > 27.9 µM
